The list shows a part of the results, in another mix than the full data. Calls of active or inactive are those of the source. No stated cut-off is given here; in the data, active means fluorescence above about 47; inactive means the rest.

This assay can be described thus: green autofluorescence of compounds with avidin beads – biophysical, 488/530 nm, flow cytometry, artefact control, profiling panel (AID 1775). The following applies: compound fluorescence 488/530 nm, at 10 µM, hits give high values. (In general: Flow cytometry measures light scatter and fluorescence of single cells or particles in a stream.)
In the case of `COc1cc(OC)cc(C(=O)NCC2(N3CCOCC3)CCCCC2)c1`, the fluorescence (KMESF) was inactive: 11.
Consider `CCC(CO)(C(=O)OC1CN2CCC1CC2)c1ccccc1` (centres undefined), for which the fluorescence (KMESF) was inactive: 22.
To `CCCOc1ccc(C)cc1CN(CCCl)CCCl` belongs inactive: 10.
`CCOc1ncccc1C(=O)NCC1(N2CCOCC2)CCCCC1`: the fluorescence (KMESF) was inactive: 3.
On to `CC(C)(C)OC(=O)N1CCC(Nc2ccccc2)CC1`, for which the fluorescence (KMESF) is inactive: 12.
For the compound `CCN1CCC(Nc2cccc(F)c2)CC1`, the fluorescence (KMESF) was inactive: 5.
In the case of `CN(C)c1ccc(C(=O)NCC2(N3CCCCC3)CCCCC2)cc1`, the fluorescence (KMESF) was inactive: 12.
To `Fc1ccccc1NC1CCN(Cc2ccccc2)CC1` belongs inactive: 20.
Consider `c1ccc(CN2CCC(Nc3ccccc3)CC2)cc1`, for which the fluorescence (KMESF) was inactive: 7.
With `N#Cc1ccc(C(=O)NCC2(N3CCCCC3)CCCCC2)cc1`, the fluorescence (KMESF) is inactive: 11.
In the case of `N/C(=N\O)c1c(N)no[n+]1[O-]` it was inactive: 6; in that of `O=C(OC1CN2CCC1CC2)C1c2ccccc2C=Cc2ccccc21` (centres undefined), inactive: 3.
For the compound `COc1ccc(C(=O)NCC2(N3CCOCC3)CCCCC2)cc1OC`, the fluorescence (KMESF) is inactive: 41.
To `CC(C)c1ccc(NC2CCN(C(=O)OC(C)(C)C)CC2)cc1` belongs inactive: 20; to `CN(C)c1cccc(C(=O)NCC2(N3CCCCC3)CCCCC2)c1`, inactive: 8.
In the case of `COc1ccc(CN(CCCl)CCCl)cc1Cl`, the fluorescence (KMESF) was inactive: 12.
For the compound `O=C(NCC1(N2CCOCC2)CCCCC1)c1cc(=O)[nH]c2ccccc12`, the fluorescence (KMESF) was inactive: 21.
To `COc1ccc(NC2CCN(C(=O)OC(C)(C)C)CC2)cc1` belongs inactive: 14; to `CN1CCN(CCOC(=O)C(O)(c2ccccc2)c2ccccc2)CC1`, inactive: 15.
On to `N#CC1(Nc2ccccc2)CCN(CCc2ccccc2)CC1`, for which the fluorescence (KMESF) is inactive: 19.
In the case of `O=C(NCC1(N2CCCCC2)CCCCC1)c1cccc([N+](=O)[O-])c1` it was inactive: 6; in that of `Cc1ccc(OCC(C)C)c(CN(CCCl)CCCl)c1`, inactive: 6.
Take `CCOc1ccc(C)cc1CN(CCCl)CCCl`: the fluorescence (KMESF) is inactive: 6.
Regarding `COc1ccc(NC2CCN(CCc3ccccc3)CC2)c(OC)c1`, the fluorescence (KMESF) was inactive: 37.
As for `O=C(NCC1(N2CCOCC2)CCCCC1)c1cc2ccccc2o1`, the fluorescence (KMESF) is active: 62.
As to `O=C(OC1CN2CCC1CC2)C1c2ccccc2Oc2ccccc21` (centres undefined), the fluorescence (KMESF) was inactive: 25.
Turning to `N#CC1(Nc2ccccc2)CCN(Cc2ccccc2)CC1`, the fluorescence (KMESF) is inactive: 8.
Turning to `CCOC(=O)N1CCC(Nc2ccc(OC)cc2)CC1`, the fluorescence (KMESF) was inactive: 8.
On to `COc1ccc(C(=O)NCC2(N3CCCCC3)CCCCC2)c(OC)c1OC`, for which the fluorescence (KMESF) was inactive: 10.
